The record followed here is ChEMBL document CHEMBL1641443, “Design, synthesis and biological evaluation of small molecule inhibitors of CD4-gp120 binding based on virtual screening” (Bioorg Med Chem, 2011).

For the assay, the target named is Envelope glycoprotein gp160 (Human immunodeficiency virus type 1 group M subtype B (isolate YU-2)(HIV-1), UniProt P35961). Put plainly: Binding affinity to HIV1 YU2 gp120 by isothermal titration calorimetry assay. The arrangement: species or system Human immunodeficiency virus type 1 (isolate YU2). The method, boiled down:
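ITC at 25 °C. Cell held gp120 at about 2 μM in PBS pH 7.4 with 2% DMSO. Heat per injection taken from the integrated signal. Kd from a single run unless noted otherwise.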
Usually Kd stands for the concentration at which binding is half-saturated. `CCN1CCC(CNC(=O)C(=O)Nc2ccc(Cl)c(F)c2)CC1`: the Kd came out at 3400 nM.
Then `CC1(C)CC(NC(=O)C(=O)Nc2ccc(Cl)c(F)c2)CC(C)(C)[N+]1(C)[O-]` (centres undefined), with 1300 nM; and `O=C(NCC1CCN(C2CC2)C1)C(=O)Nc1ccc(Cl)c(F)c1` (centres undefined), with 1700 nM; and `O=C(Nc1ccc(Cl)c(F)c1)C(=O)NC1CCN(C2CCCCC2)C1` (centres undefined), with 2400 nM.
